The source of these data is publication PMC3938055.

One assay has as its target EGFP-CENP-S (human) (UniProt Q8N2Z9). Briefly: FRET or BRET; acceptor photobleaching FRET at centromeres in living cells; EGFP donor, mCherry acceptor bleached in a 4-10 µm^2 region; E_FRET against EVAR of an unbleached region, Mann-Whitney rank-sum test. For orientation: In BRET a luciferase serves as donor, and the signal depends on an acceptor being close.
The target of the next assay is CENP-S-EGFP (human) (UniProt Q8N2Z9). The assay is described as above.

In the assay with EGFP-CENP-S (human), “histone H3.1-mCherry (from UniProt P68431 1-136) (natural protein; other documents disagree on this pair)” registered an E FRET of 2.88 and a ΔE (E FRET – EVAR) of 4.24. In the assay with CENP-S-EGFP (human), this substance yielded an E FRET of 2.08 and a ΔE (E FRET – EVAR) of 3.65.
